From ChEMBL document CHEMBL1641457, “The synthesis and biological evaluation of 1-C-alkyl-L-arabinoiminofuranoses, a novel class of α-glucosidase inhibitors” (Bioorg Med Chem Lett, 2011)
pIC50: −log10 of the molar value.

Sequences of proteins named here, by UniProt entry; tags and fusion partners are left off. Residues count along the entry.
UniProt P23739, 1014-1841 limits assumed: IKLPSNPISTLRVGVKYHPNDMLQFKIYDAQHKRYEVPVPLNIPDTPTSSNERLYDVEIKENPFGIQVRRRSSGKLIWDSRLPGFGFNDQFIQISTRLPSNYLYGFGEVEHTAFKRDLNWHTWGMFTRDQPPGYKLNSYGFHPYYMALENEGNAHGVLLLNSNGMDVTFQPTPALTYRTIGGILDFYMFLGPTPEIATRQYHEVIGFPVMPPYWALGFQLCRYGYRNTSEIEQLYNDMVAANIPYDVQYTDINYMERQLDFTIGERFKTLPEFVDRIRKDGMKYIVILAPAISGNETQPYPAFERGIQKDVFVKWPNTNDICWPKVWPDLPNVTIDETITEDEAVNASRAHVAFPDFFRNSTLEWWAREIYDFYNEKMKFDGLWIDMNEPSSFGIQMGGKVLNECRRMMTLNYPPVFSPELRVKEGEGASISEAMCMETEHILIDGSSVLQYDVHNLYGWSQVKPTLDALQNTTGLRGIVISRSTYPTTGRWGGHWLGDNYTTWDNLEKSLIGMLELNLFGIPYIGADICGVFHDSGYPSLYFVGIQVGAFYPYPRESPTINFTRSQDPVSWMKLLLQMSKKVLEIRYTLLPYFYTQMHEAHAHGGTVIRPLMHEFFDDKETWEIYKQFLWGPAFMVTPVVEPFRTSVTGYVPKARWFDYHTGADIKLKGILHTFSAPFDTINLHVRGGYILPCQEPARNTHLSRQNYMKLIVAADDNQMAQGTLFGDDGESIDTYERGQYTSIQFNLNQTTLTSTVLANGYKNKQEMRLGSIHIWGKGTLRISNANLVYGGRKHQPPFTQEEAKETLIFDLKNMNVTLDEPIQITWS
UniProt P23739, 1-1013 limits assumed: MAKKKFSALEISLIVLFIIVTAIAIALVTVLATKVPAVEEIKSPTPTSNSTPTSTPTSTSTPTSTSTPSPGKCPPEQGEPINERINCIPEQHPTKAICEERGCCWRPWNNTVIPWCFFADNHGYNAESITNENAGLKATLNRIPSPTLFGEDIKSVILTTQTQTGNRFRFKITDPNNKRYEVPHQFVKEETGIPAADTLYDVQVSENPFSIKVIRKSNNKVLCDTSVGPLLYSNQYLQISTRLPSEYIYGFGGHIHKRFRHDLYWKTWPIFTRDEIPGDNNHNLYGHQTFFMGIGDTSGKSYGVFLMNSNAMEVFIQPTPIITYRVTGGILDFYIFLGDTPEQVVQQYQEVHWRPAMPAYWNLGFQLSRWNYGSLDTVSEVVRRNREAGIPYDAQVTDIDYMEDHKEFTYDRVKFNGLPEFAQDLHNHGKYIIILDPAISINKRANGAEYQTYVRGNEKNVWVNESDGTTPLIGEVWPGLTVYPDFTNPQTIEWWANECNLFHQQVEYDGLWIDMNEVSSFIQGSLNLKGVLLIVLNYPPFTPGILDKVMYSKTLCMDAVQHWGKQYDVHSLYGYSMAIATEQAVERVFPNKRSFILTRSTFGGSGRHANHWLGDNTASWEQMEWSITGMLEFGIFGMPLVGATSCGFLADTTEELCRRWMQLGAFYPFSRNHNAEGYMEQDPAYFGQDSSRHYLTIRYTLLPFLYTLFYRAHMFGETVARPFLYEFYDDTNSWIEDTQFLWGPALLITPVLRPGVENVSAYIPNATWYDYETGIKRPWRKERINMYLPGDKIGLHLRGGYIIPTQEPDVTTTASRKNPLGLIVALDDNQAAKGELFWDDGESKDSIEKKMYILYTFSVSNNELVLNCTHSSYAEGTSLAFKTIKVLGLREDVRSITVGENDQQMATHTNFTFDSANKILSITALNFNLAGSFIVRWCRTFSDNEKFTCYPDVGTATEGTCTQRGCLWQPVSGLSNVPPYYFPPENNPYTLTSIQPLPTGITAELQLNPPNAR

Biological target: Sucrase-isomaltase, intestinal (Rattus norvegicus, UniProt P23739)
Experiment: Inhibition of Wistar rat small intestine sucrase after 30 mins

pIC50: 5.54
Compound: C[C@H]1O[C@H](O[C@H]2[C@H](O)[C@@H](O)[C@@H](O[C@H]3[C@H](O)[C@@H](O)C(O)O[C@@H]3CO)O[C@@H]2CO)[C@H](O)[C@@H](O)[C@@H]1N[C@H]1C=C(CO)[C@@H](O)[C@H](O)[C@H]1O (stereo partly specified) [ACARBOSE]
